# Tested on: HIP rats
smiles,measurement,setting,value
CC(=O)N1CCC(NC(=O)NC23CC4CC(CC(C4)C2)C3)CC1 [APAU],arginase expression and arginase activation,"HIP rat kidneys, FIG. 32",variable effects
same,amylin deposition in renal microvasculature,"HIP-T vs HIP-UT, drinking water 10 weeks, FIG. 22E",lower

# — patent US12115141B2, “Diagnosis of diabetes by detecting aggregated amylin in erythrocytes” (University of Kentucky Research Foundation, priority 2018, dated 2024)
